This passage reports activity (quench increase) results from PubChem BioAssay AID720511 (Broad Institute, 2013).

The entries are a selection whose mix differs from that of the whole data set. Some salts or complexes appear as unconnected parts, following the source record. The source made the active and inactive calls.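 How the source made its calls: active means mean added fluorescence quench of at least 8% versus neutral control, with both replicates also reaching 8%; inconclusive means only one of the mean or replicate conditions met; inactive means mean below 8% and not both replicates reaching 8%.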

This assay is described as follows: F508del CFTR correction, initial screen, CFBE line, single point (AID 720511).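 Further: cells transiently co-express mutant CFTR-F508del with the halide-sensitive YFP; corrector assay measuring rescue of mutant channel to the surface after 24 h compound exposure.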 Conditions: CFBE cells, YFP halide quenching, at 7.58 µM, hits give high values, % fluorescence drop versus neutral controls, stimulated with forskolin plus potentiator P3.
On to `Cc1cc(C)cc(OP(C)(N)=O)c1` (centres undefined), for which the activity (quench increase) was inactive: -1.86%.

With `COc1ccccc1OP(C)(=O)Nc1cc(Cl)ccc1C` (centres undefined), the activity (quench increase) is inactive: 0.917%.

For the compound `O=[N+]([O-])c1cc([N+](=O)[O-])c(Nc2cccnc2)c([N+](=O)[O-])c1`, the activity (quench increase) is inactive: -3.6%.

On to `O=[N+]([O-])c1ccc2c(c1)C=Nc1ccccc1O2`, for which the activity (quench increase) was inactive: 1.5%.

Consider `CC(C)(C)c1ccc(OP(C)(=O)Nc2ccc(SC(F)(F)F)cc2)cc1` (centres undefined), for which the activity (quench increase) was inactive: 3.66%.

Take `Cc1cccc(C)c1OP(C)(N)=O` (centres undefined): the activity (quench increase) is inactive: 0.02%.

As to `COc1ccccc1-c1ccccn1.O=[N+]([O-])c1cc([N+](=O)[O-])c(O)c([N+](=O)[O-])c1`, the activity (quench increase) was inactive: 3.4%.

For the compound `CCN(CC)CCCOC(=O)C(O)(c1ccccc1)c1ccccc1`, the activity (quench increase) was inactive: 0.539%.

Take `O=[N+]([O-])c1cc([N+](=O)[O-])c(O)c([N+](=O)[O-])c1.c1ccc(Oc2ccncc2)cc1`: the activity (quench increase) was inactive: -0.957%.

For `CCOC(=O)c1ccc(NP(C)(=O)Oc2ccc(OC)cc2)cc1` (centres undefined), the activity (quench increase) was inactive: 0.302%.

As to `CP(=O)(Nc1ccccn1)Oc1ccc(Cl)cc1` (centres undefined), the activity (quench increase) was inactive: 0.656%.

With `CP(=O)(Nc1ccc(SC(F)(F)F)cc1)Oc1ccc(Cl)cc1` (centres undefined), the activity (quench increase) was inactive: -0.47%.

Turning to `CP(=O)(Oc1ccccc1)OC(c1ccccc1)C(F)(F)F` (centres undefined), the activity (quench increase) is inactive: 0.152%.

For `CCc1ccc(OP(C)(=O)N2CCN(c3ccc([N+](=O)[O-])cc3)CC2)cc1` (centres undefined), the activity (quench increase) was inactive: 1.64%.

As to `CP(=O)(NC(=O)Nc1ccccc1)Oc1ccccc1` (centres undefined), the activity (quench increase) is inactive: -1.55%.

On to `CP(=O)(Nc1ccccc1Br)Oc1ccccc1` (centres undefined), for which the activity (quench increase) was inactive: -3.07%.

On to `COc1ccccc1OP(C)(=O)Nc1ccccc1` (centres undefined), for which the activity (quench increase) was inactive: -2.27%.

In the case of `COc1ccc(-c2ccccn2)cc1.O=[N+]([O-])c1cc([N+](=O)[O-])c(O)c([N+](=O)[O-])c1`, the activity (quench increase) was inactive: 3.3%.

`CCCOc1ccc(NP(C)(=O)Oc2ccc(Cl)cc2)cc1` (centres undefined): the activity (quench increase) is inactive: -0.153%.

Regarding `O=[N+]([O-])c1cc([N+](=O)[O-])c(Nc2nnnn2CCO)c([N+](=O)[O-])c1`, the activity (quench increase) is inactive: 0.816%.

Consider `CCOC(=O)C(CC)C1=NC(C)(C)Cc2ccccc21.O=[N+]([O-])c1cc([N+](=O)[O-])c(O)c([N+](=O)[O-])c1` (centres undefined), for which the activity (quench increase) is inactive: -1.55%.

For `O=[N+]([O-])c1cc([N+](=O)[O-])c(-c2cnn(-c3ccccc3)c2)c([N+](=O)[O-])c1`, the activity (quench increase) is inactive: 1.51%.

As for `O=[N+]([O-])c1cc([N+](=O)[O-])c(-n2nnc3ccccc32)c([N+](=O)[O-])c1`, the activity (quench increase) was inactive: 0.569%.

In the case of `CN(Cc1cccnc1)C(=O)COc1ccc(Cl)c(Cl)c1.O=[N+]([O-])c1cc([N+](=O)[O-])c(O)c([N+](=O)[O-])c1`, the activity (quench increase) is inactive: 2.74%.

Turning to `CP(=O)(Nc1cccc(Br)c1)Oc1ccccc1` (centres undefined), the activity (quench increase) is inactive: 0.132%.

Consider `COc1ccccc1OP(C)(=O)Nc1cccc(Br)c1` (centres undefined), for which the activity (quench increase) was inactive: -0.371%.

As for `CCOC(=O)c1ccc(NP(C)(=O)Oc2cc(C)cc(C)c2)cc1` (centres undefined), the activity (quench increase) is inactive: -2.74%.

For `Cc1cc(C)cc(OP(C)(=O)Nc2ccc(C)cc2C)c1` (centres undefined), the activity (quench increase) was inactive: -0.438%.

Consider `O=C(O)c1cccc(Nc2c([N+](=O)[O-])cc([N+](=O)[O-])cc2[N+](=O)[O-])c1`, for which the activity (quench increase) is inactive: -0.427%.

On to `Cc1c([N+](=O)[O-])cc([N+](=O)[O-])c(Br)c1[N+](=O)[O-]`, for which the activity (quench increase) was inactive: -3.06%.

For `O=[N+]([O-])c1cc([N+](=O)[O-])c(OC2CCCCC2O)c([N+](=O)[O-])c1` (centres undefined), the activity (quench increase) is inactive: 4.04%.

On to `CCCCCOc1ccc(NP(C)(=O)Oc2ccc(Cl)cc2Cl)cc1` (centres undefined), for which the activity (quench increase) is inactive: -1.94%.

With `CCN(CC)CCCNc1ccccc1[N+](=O)[O-].O=[N+]([O-])c1cc([N+](=O)[O-])c(O)c([N+](=O)[O-])c1`, the activity (quench increase) was inactive: -1.39%.

For `COc1ccc(OP(C)(=O)Nc2ccc(SC(F)(F)F)cc2)cc1` (centres undefined), the activity (quench increase) was inactive: -0.729%.

As to `O=C(OC1CN2CCC1CC2)c1ccc([N+](=O)[O-])cc1` (centres undefined), the activity (quench increase) is inactive: 1.12%.

On to `O=C(OCCN1CCN(CCOCc2ccccc2)CC1)C(O)(c1ccccc1)c1ccccc1`, for which the activity (quench increase) was inactive: -0.36%.

For `COc1ccc2c(c1O)-c1c(O)c(OC)cc3c1[C@H](C2)[N+](C)(C)CC3.O=[N+]([O-])c1cc([N+](=O)[O-])c([O-])c([N+](=O)[O-])c1[O-]`, the activity (quench increase) was inactive: 0.742%.

Consider `O=[N+]([O-])c1cc([N+](=O)[O-])c(Nc2ccc(Cl)cc2)c([N+](=O)[O-])c1`, for which the activity (quench increase) is inactive: -7.66%.

As to `CP(=O)(Nc1ccccc1F)Oc1ccccc1` (centres undefined), the activity (quench increase) is inactive: -0.0165%.

With `O=[N+]([O-])c1cc([N+](=O)[O-])c(C(F)(F)F)c([N+](=O)[O-])c1O`, the activity (quench increase) was inactive: -0.633%.

Take `CP(=O)(Nc1ccc(SC(F)(F)F)cc1)Oc1ccc(F)cc1` (centres undefined): the activity (quench increase) is inactive: -1.89%.

On to `CCOP(=O)(CC)OCC`, for which the activity (quench increase) was inactive: 0.109%.

Turning to `O=[N+]([O-])c1ccc(OP2(=O)COCCO2)cc1` (centres undefined), the activity (quench increase) was inactive: 0.009%.

Take `Cc1cc(-c2cccc3ccccc23)c(C)cn1.O=[N+]([O-])c1cc([N+](=O)[O-])c(O)c([N+](=O)[O-])c1`: the activity (quench increase) was inactive: -0.251%.

Take `Cc1c(C(c2ccc3c(c2)OCO3)c2c(C)n(C)n(-c3ccccc3)c2=O)c(=O)n(-c2ccccc2)n1C.O=[N+]([O-])c1cc([N+](=O)[O-])c(O)c([N+](=O)[O-])c1`: the activity (quench increase) was inactive: -1.43%.

`COc1ccc(NP(C)(=O)Oc2ccccc2OC)cc1` (centres undefined): the activity (quench increase) was inactive: -0.687%.

As for `Nc1ccc2c(ccc3cccnc32)n1.O=[N+]([O-])c1cc([N+](=O)[O-])c(O)c([N+](=O)[O-])c1`, the activity (quench increase) is inactive: 3%.

Turning to `CCOC(=O)c1ccc(NP(C)(=O)Oc2ccc(Cl)cc2)cc1` (centres undefined), the activity (quench increase) is inactive: -0.843%.

On to `COc1ccccc1OP(C)(=O)Nc1ccccc1Br` (centres undefined), for which the activity (quench increase) was inactive: -0.55%.

As for `CN(C)C(=O)c1c([N+](=O)[O-])cc([N+](=O)[O-])cc1[N+](=O)[O-]`, the activity (quench increase) was inactive: -4.93%.

Turning to `O=C(OCCCN1CCCC1)C(O)(c1ccccc1)C1CCCCC1` (centres undefined), the activity (quench increase) is inactive: -0.282%.

Turning to `CCc1ccc(OP(C)(=O)Nc2cccnc2)cc1` (centres undefined), the activity (quench increase) is inactive: -2.75%.

`O=[N+]([O-])c1cc([N+](=O)[O-])c(Nc2ccccn2)c([N+](=O)[O-])c1`: the activity (quench increase) is inactive: -3.15%.

`COc1ccccc1OP(C)(=O)Nc1ccc(Br)cc1` (centres undefined): the activity (quench increase) was inactive: -0.853%.

As to `CP(=O)(OCCOc1ccccc1)OCCOc1ccccc1`, the activity (quench increase) was inactive: 0.443%.

With `CP(=O)(Nc1ccc(Cl)cc1Cl)Oc1ccccc1` (centres undefined), the activity (quench increase) was inactive: -3.71%.

As to `CCCCCCCCCCCCCCCC1C[N+](C)(C)CCOP(C)(=O)O1` (centres undefined), the activity (quench increase) was inactive: 3.58%.

On to `O=C1C(O)=C([N+](=O)[O-])C(=O)C(O)=C1[N+](=O)[O-]`, for which the activity (quench increase) is inactive: -1.66%.

For the compound `Cc1cc(C)cc(OP(C)(=O)Nc2cccc(C(F)(F)F)c2)c1` (centres undefined), the activity (quench increase) is inactive: -1.31%.
